# Apparent affinities of Ab-14 variants for a coronavirus HR2 peptide

All variants were tested on one target, the spike HR2 peptide PDVDLGDISGINAS (SARS-CoV-2).

Ab-14 is the parent antibody, in scFv form: VH, then three GGGGS repeats, then VL. The light chain is unchanged in all variants.
VH: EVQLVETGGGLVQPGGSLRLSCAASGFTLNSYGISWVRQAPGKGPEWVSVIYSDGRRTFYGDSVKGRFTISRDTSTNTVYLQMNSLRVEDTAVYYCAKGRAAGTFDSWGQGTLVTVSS
VL: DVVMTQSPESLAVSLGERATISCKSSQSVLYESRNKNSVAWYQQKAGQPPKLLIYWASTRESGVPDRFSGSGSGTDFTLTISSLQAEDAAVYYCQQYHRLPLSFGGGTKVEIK

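The parent was found by panning a naive human phage display library on the peptide. This is the validation round: designs drawn from the data on random variants, tested in the same kind of assay. Group labels follow the data file (Ctrl: baseline library sampled from a position-specific scoring matrix, with some repeated check sequences; GP: Gaussian process model; GPLM: also part of the Gaussian process libraries; HC: hill climbing; Gen: genetic algorithm; a sequence that several methods proposed may carry one label only). AlphaSeq pools MATa yeast showing the antibodies with MATalpha yeast showing the peptide. Binding brings cells together so that they mate, and sequencing counts the barcode pairs among the diploids. Scores were corrected for input abundance and mapped to Kd with protein pairs of known affinity run in the same pool. There are six technical replicates.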

Variants are written as CDR1, CDR2 and CDR3 of the heavy chain (limits as in the source). Parent: GFTLNSYGIS, VIYSDGRRTFYGDSVK, GRAAGTFDS.
Numbers give log10(Kd / nM), so 0 is 1 nM and 3 is 1 µM. Smaller is tighter.
Replicates are averaged; those with no signal do not enter the mean.
"nd" means that the variant was in the library but no mating with the target was seen in that replicate; the authors take this as a sign of poor binding, and no number exists.
Empty control strains, which show no peptide, gave a signal in 1% of pairings with all heavy chain designs; the median was 2.08 and 95% of these signals were weaker than 0.84. No background was subtracted. For each scFv, signals with the empty controls are counted beside the result, with their mean in brackets.
Where one sequence has several entries in the source, the replicates are listed entry by entry, parted by semicolons.
The authors averaged sequences with at least three values out of six and counted those with two or fewer as poor binders.
The range of this assay differs from that of the first round, and the authors advise against merging the two.

CDR-H1,CDR-H2,CDR-H3,group,log10 Kd (nM) by replicate,mean log10 Kd (nM),control signals
GFNLSDYGIS,VIYSDGRRTFYADNVK,GRAAGTFDS,Ctrl,1.30 1.89 0.68 1.50 1.34 1.30,1.33,0/18
GFTLNSYGIS,VIYSDGMRTFYRDSVK,GRLAGTFDS,Ctrl,nd nd nd nd nd nd,nd,0/18
GFTLNSYGIS,VIYSDGRRTFYGDSYK,GRAAGTFDS,Ctrl,nd nd nd nd 1.59 nd,1.59,0/18
GFTLNSYGIS,VIYSDGRRTYYGDSVK,TRDAGTFLS,Ctrl,nd nd nd nd nd nd,nd,0/18
GFALNSYGIS,VIYSDGRRTFYGDSVK,GGAAGTFDS,Ctrl,nd 1.36 1.37 0.73 0.03 1.58,1.01,0/18
GFTLNSYGIS,VIYSDGRRTFYGDSVK,GREPGTFDQ,Ctrl,2.20 2.24 1.05 0.82 nd nd,1.58,0/18
GFTLNDYGIS,VIYSDGRRTFYGDSVK,GVASGTFDS,Ctrl,1.67 nd nd nd nd 2.77,2.22,2/18 (2.32)
GFTLNSYGIS,VIYSDGRRTFYADSVV,GRATGTFDV,Ctrl,nd nd nd nd nd nd,nd,0/18
GFQLNSYGIS,VIYSDGRRTFYGDSVK,GRLAGTFDS,Ctrl+GP_HC,nd nd 2.65 1.45 2.67 nd; 1.61 nd nd 1.32 1.85 1.72,1.90,0/36
GFTLNSYGIS,VIYSDGRRTFYGDSVR,GRVAGTFKS,Ctrl,1.06 1.65 1.28 1.44 1.71 1.49,1.44,1/18 (2.99)
GFTLNKYGIS,VIYADGRRTFYGDKVK,GRAIGTFDV,Ctrl,nd nd nd nd nd nd,nd,0/18
GFDLNDYGIS,VIYSDGRRTFYGDSVK,GRGAGTFRS,Ctrl,0.14 0.76 0.89 0.56 1.57 0.77,0.78,0/18
GFTLNSYGIS,VIYSDGRRTFYGDSVK,GRAAKTFDV,Ctrl,nd nd nd nd nd nd,nd,0/18
DFQLNSYGIS,VIYSDGQRTFYGDSVK,GREAGTFDQ,Ctrl,nd 0.42 0.44 0.99 0.17 0.43,0.49,0/18
GENLNSYGIS,VIYSDGRRTFYGDSVK,GREAGTFDS,Ctrl,1.12 1.94 nd 1.08 2.09 1.15,1.48,0/18
GFNLNEYGIS,VIYSDGRRTFYSDSVK,GRAAGTFDS,Ctrl,-0.18 0.13 -0.01 -0.31 -0.18 0.47,-0.01,0/18
GFTLNEYGIS,VIYRDGRRTFYGDQVK,GRAAGTFDS,Ctrl,nd nd nd nd nd nd,nd,0/18
GFWLNSYGIS,VIYSDGRRTFYSDQVK,GRAAGTFDS,Ctrl,2.06 nd 2.57 2.10 2.02 2.38,2.23,0/18
GFELNSYGIS,VIYSDGRRTFYGDSVK,GRLAGTFSS,Ctrl,2.70 1.41 2.76 1.22 2.54 1.37,2.00,2/18 (1.78)
GFELNSYGIS,VIYSDGRRTFYSDSVR,GRYAGTFDS,Ctrl,0.74 0.34 0.32 0.41 0.36 0.48,0.44,1/18 (1.77)
GFVLNSYGIS,VIYSDGMRTFYSDAVA,GRAAGTFDS,Ctrl,nd nd nd 1.84 1.80 nd,1.82,0/18
GFRLNSYGIS,VIYSDGIRTFYGDSVK,GRAAGTFDS,Ctrl,nd nd nd nd nd nd,nd,0/18
GFTLNMYGIS,VIYSDGRRTFYGDSVK,GREAGTFDS,Ctrl,0.78 0.96 0.64 1.00 0.88 2.45,1.12,0/18
GFHLNSYGIH,VIYSDGRRTFYGDSVK,GRNAGTPNE,Ctrl,nd nd nd nd nd nd,nd,1/18 (2.71)
GFSLNSYGIS,VIYSNGRRTFYGDDVR,GRAAKTFDS,Ctrl,nd nd nd nd nd nd,nd,0/18
GFTLNEYGVS,VIYSDGRRTFYGDSVR,GRAAGTFKS,Ctrl,nd nd nd nd 2.50 2.49,2.49,0/18
GFDLNSYGIS,VIYSDGRRTFYGDSVK,GRAAGTFDS,Ctrl+GPLM_Gen,0.86 2.56 1.03 0.91 1.60 1.97; 0.62 0.33 0.16 0.58 -0.05 0.44,0.92,0/36
GFTLNEYGIS,VIYSDGRRTFYGDSVK,GELAGTFDS,Ctrl,0.99 0.25 nd 1.11 1.15 0.77,0.85,1/18 (1.72)
GFTLNSYGIS,VIYSDGRRTFYGDSVK,GKQAGNFDS,Ctrl,nd nd nd nd nd nd,nd,0/18
GTTLNSYGKS,VIYSDGRRTFYGNKFK,GRAAGTFDS,Ctrl,nd nd nd nd nd nd,nd,0/18

Picked from the list: the 2 lowest averages where every replicate gave a value.

CDR-H1,CDR-H2,CDR-H3,group,log10 Kd (nM) by replicate,mean log10 Kd (nM),control signals
GFNLNEYGIS,VIYSDGRRTFYSDSVK,GRAAGTFDS,Ctrl,-0.18 0.13 -0.01 -0.31 -0.18 0.47,-0.01,0/18
GFELNSYGIS,VIYSDGRRTFYSDSVR,GRYAGTFDS,Ctrl,0.74 0.34 0.32 0.41 0.36 0.48,0.44,1/18 (1.77)

Data: MIT Lincoln Laboratory AlphaSeq set, Li et al. 2023, doi:10.1038/s41467-023-39022-2, as distributed in FLAb.